Several values for one entry are separate records, joined by “and”; a condition that tells them apart may be missing. Equal values may be shown once. Read-outs that look alike come from different tables or passages of the source. Marks after values point to notes of the source that are not given here.
Tests used:
5-HT7 receptor = 5-HT7 receptor (Homo sapiens, UniProt P34969); experiment: Functional assay, intrinsic activity at 5-HT7; type: cell-based
5-HT3 receptors = settings: cited from earlier work
5-HT7 = settings: cited from earlier work
mice [1] = experiment: Four plate test after pretreatment with pCPA, WAY-100635 or AMPT; settings: mouse, in vivo
5-HT2A = settings: cited from earlier work
D2 receptor [2] = target: T1, D2 receptor (Homo sapiens, UniProt P14416); experiment: biochemical
5-HT1A receptor [3] = target: T2, 5-HT1A receptor (Homo sapiens, UniProt P08908); experiment: Tango LiveBLAzer β-arrestin recruitment assay, HTR1A-bla U2OS cells; settings: for Emax: U2OS
mice [4] = experiment: Spontaneous locomotor activity; settings: mouse, in vivo
D2 receptor [5] = target: T1, D2 receptor; experiment: cell-based
5-HT1A receptor [6] = target: T2, 5-HT1A receptor; experiment: SureFire ERK-phosphorylation AlphaLISA assay, CHO-5HT1A cells
α1 = settings: cited from earlier work
α2-adrenergic receptor = settings: read-out: α2 receptors Ki ± SEM; rat cerebral cortex, [3H]-clonidine 0.2 nM
5-HT1A receptor [7] = target: T2, 5-HT1A receptor; design: expressed in transfected cells; host or cells: CHO (CHO-5HT1A); method as in Kubacka et al., 2016; settings: cited from earlier work
5-HT2A receptor = 5-HT2A receptor (Homo sapiens, UniProt P28223); experiment: cell-based; type: cell-based
mice [8] = experiment: Four plate test; settings: mouse, in vivo
Description: The four plate test was performed on mice according to the method previously described ([Aron et al., 1971]; [Bourin et al., 2005]; [Pytka et al., 2016b]). Mice were placed individually in the four plate apparatus connected to the power source. […] If the mouse continued running, it received no new shock for the following 3 s.

Amino acid sequences for entries named in this document (tags omitted).
UniProt P34969, whole entry: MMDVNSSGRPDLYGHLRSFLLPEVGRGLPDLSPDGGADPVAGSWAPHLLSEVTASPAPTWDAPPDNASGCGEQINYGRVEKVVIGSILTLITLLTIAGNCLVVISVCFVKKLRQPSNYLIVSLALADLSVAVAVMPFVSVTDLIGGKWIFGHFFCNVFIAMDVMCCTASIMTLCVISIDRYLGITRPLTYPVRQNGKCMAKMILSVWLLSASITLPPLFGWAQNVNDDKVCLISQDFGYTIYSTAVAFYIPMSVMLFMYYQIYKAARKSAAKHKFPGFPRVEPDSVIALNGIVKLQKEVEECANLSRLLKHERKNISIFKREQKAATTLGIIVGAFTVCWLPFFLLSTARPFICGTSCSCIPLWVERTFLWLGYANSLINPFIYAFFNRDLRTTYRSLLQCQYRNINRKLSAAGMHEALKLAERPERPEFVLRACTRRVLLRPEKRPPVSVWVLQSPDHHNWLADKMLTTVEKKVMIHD
UniProt P14416, whole entry: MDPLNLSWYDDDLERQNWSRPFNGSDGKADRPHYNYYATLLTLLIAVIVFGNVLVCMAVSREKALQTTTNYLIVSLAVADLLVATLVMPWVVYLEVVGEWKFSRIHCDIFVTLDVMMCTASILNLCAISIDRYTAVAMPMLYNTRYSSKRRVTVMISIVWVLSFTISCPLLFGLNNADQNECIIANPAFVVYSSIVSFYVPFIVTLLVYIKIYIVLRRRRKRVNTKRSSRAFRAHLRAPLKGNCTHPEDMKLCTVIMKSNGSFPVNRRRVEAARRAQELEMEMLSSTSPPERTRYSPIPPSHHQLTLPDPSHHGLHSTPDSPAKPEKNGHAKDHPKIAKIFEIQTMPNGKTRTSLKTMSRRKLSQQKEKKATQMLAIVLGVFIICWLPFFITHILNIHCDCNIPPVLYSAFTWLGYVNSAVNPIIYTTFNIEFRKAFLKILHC
UniProt P08908, whole entry: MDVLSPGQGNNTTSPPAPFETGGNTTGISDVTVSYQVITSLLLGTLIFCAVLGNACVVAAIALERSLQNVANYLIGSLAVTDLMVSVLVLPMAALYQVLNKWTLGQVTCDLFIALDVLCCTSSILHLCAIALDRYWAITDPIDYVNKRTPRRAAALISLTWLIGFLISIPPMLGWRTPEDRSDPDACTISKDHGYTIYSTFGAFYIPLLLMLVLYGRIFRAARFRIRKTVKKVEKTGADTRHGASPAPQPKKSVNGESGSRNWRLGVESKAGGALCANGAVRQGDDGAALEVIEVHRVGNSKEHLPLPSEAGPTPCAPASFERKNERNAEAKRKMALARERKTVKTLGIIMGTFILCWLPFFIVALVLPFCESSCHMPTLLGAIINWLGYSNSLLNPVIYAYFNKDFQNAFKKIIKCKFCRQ
UniProt P28223, whole entry: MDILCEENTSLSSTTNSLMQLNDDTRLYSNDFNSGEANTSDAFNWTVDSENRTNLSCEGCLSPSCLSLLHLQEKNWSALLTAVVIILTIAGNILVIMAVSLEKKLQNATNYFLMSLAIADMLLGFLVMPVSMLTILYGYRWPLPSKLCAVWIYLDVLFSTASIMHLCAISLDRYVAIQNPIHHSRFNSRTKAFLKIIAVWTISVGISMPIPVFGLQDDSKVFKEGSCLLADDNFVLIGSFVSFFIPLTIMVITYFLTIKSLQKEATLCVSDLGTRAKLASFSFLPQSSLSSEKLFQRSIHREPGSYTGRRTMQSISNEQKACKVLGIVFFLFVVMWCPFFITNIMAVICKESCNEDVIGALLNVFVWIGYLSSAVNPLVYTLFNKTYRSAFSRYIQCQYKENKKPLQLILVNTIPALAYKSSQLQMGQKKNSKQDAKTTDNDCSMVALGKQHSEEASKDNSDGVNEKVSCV

rats = settings: rat, in vivo; cited from earlier work
5-HT6 = settings: cited from earlier work
mice [9] = experiment: Elevated plus maze test; settings: mouse, in vivo
[10] = in vivo; cited from earlier work
mice [11] = settings: mouse, in vivo
GABAA receptor = settings: read-out: GABAA receptors Ki ± SEM; rat cerebral cortex, [3H]-muscimol 1 nM
[12] = target: human serotonin 5-HT1A receptor (Homo sapiens, UniProt P08908); experiment: cAMP assay (TR-FRET), CHO-K1 cells
[13] = read-out: Antagonist mode Emax %

Q: Which IC50 (5-HT7 receptor) does the source give for `COc1ccccc1N1CCN(CCCOc2cc(C)ccc2C)CC1.Cl` [HBK-17, 1-[(2,5-dimethylphenoxy)propyl]-4-(2-methoxyphenyl)piperazine hydrochloride] here?
A: The IC50 was 0.123 µM.

Q: What about the Kb (5-HT7 receptor) of the same compound?
A: Its Kb is 0.039 µM.

Q: And the Emax (5-HT7 receptor; read-out: Agonist mode Emax %)?
A: The Emax was 18%.

Q: And the Emax (5-HT7 receptor; [13])?
A: The Emax was 11%.

Q: What about the “Affinity for 5-HT3 receptors” value (5-HT3 receptors) of the same compound?
A: Its value is “very low”.

Q: What about the “Affinity for 5-HT7” value (5-HT7) of the same compound?
A: Its value is “high affinity”.

Q: And the “Activity of HBK-17 (punished crossings) after pCPA pretreatment” value (mice [1])?
A: Its value is “abolished”.

Q: What about the “Effect of HBK-17 (punished crossings) after AMPT pretreatment” value (mice [1]) of the same compound?
A: The value was “did not influence”.

Q: What about the “Effect of HBK-17 (punished crossings) after WAY-100635 pretreatment” value (mice [1]) of the same compound?
A: The value was “antagonized”.

Q: What about the “Increase in number of punished crossings” value (mice [1]) of the same compound?
A: The value was 76%.

Q: And the “Increase in number of punished crossings vs non-treated control” value (mice [1])?
A: Its value is 84.2% and 60.0%.

Q: And the “Affinity for 5-HT2A” value (5-HT2A)?
A: The value was “moderate”.

Q: What about the Ki (D2 receptor [2]) of the same compound?
A: Its Ki is 0.0514 ± 0.0007 µM.

Q: And the EC50 (5-HT1A receptor [3])?
A: The EC50 was 0.324 µM.

Q: What about the Emax (5-HT1A receptor [3]; read-out: Agonist mode Emax %) of the same compound?
A: Its Emax is 94%.

Q: What about the Emax (5-HT1A receptor [3]; [13]) of the same compound?
A: The Emax was 29%.

Q: And the “Influence on locomotor activity” value (mice [4])?
A: Its value is “did not influence”.

Q: And the “Number of crossings ± SEM” value (mice [4]; 5 mg/kg)?
A: The value was 30.9 and 23.3 and 41.1.

Q: What about the IC50 (D2 receptor [5]) of the same compound?
A: The IC50 was 0.0224 µM.

Q: What about the Kb (D2 receptor [5]) of the same compound?
A: Its Kb is 0.00663 µM.

Q: What about the Emax (D2 receptor [5]; read-out: Agonist mode Emax %) of the same compound?
A: Its Emax is 2%.

Q: And the Emax (D2 receptor [5]; [13])?
A: The Emax was 0%.

Q: And the EC50 (5-HT1A receptor [6])?
A: Its EC50 is 0.0141 µM.

Q: And the IC50 (5-HT1A receptor [6])?
A: The IC50 was 0.2 µM.

Q: What about the Kb (5-HT1A receptor [6]) of the same compound?
A: The Kb was 0.029 µM.

Q: And the Emax (5-HT1A receptor [6]; read-out: Agonist mode Emax %)?
A: The Emax was 40%.

Q: And the Emax (5-HT1A receptor [6]; [13])?
A: The Emax was 35%.

Q: What about the “Affinity for α1” value (α1) of the same compound?
A: The value was “high affinity”.

Q: And the Ki (α2-adrenergic receptor)?
A: Its Ki is 17.8 ± 0.0015 µM.

Q: What about the “Agonist mode Emax %” value (5-HT1A receptor [7]) of the same compound?
A: Its value is 1^a %.

Q: And the “Antagonist mode Emax %” value (5-HT1A receptor [7])?
A: Its value is 4^a %.

Q: What about the “Antagonist mode pIC50” value (5-HT1A receptor [7]) of the same compound?
A: Its value is 8^a.

Q: What about the Kb (5-HT1A receptor [7]; read-out: Antagonist mode Kb) of the same compound?
A: Its Kb is 0.0069 µM.

Q: And the “5-HT2A blockade weaker than reference compound” value (5-HT2A receptor)?
A: Its value is 1228.1 fold.

Q: And the IC50 (5-HT2A receptor)?
A: Its IC50 is 11.2 µM.

Q: What about the Kb (5-HT2A receptor) of the same compound?
A: Its Kb is 0.7 µM.

Q: And the Emax (5-HT2A receptor; read-out: Agonist mode Emax %)?
A: The Emax was 1%.

Q: What about the Emax (5-HT2A receptor; [13]) of the same compound?
A: The Emax was 58%.

Q: And the “Increase in the number of punished crossings vs non-treated control” value (mice [8])?
A: The value was 70.9%.

Q: And the “Antiarrhythmic properties in adrenaline-induced arrhythmia” value (rats)?
A: The value was “strong antiarrhythmic properties”.

Q: And the “Affinity for 5-HT6” value (5-HT6)?
A: The value was “very low”.

Q: And the “Increase in number of open arm entries vs non-treated control” value (mice [9])?
A: The value was 28.6%.

Q: And the “Increase in time spent in the open arms vs non-treated control” value (mice [9])?
A: Its value is 38.9%.

Q: What about the “ED50, sedative properties” value [10] of the same compound?
A: The value was 15.0 mg/kg.

Q: And the “Latency time to the first hind paw or/and jumping response” value (mice [11])?
A: The value was “did not increase”.

Q: And the Ki (GABAA receptor)?
A: Its Ki is over 10 µM.

Q: What about the IC50 [12] of the same compound?
A: The IC50 was 0.158 µM.

Q: And the Kb [12]?
A: The Kb was 0.039 µM.

Q: What about the Emax ([12]; CHO-K1, read-out: Agonist mode Emax %) of the same compound?
A: The Emax was 1%.

Q: And the Emax ([12]; CHO-K1, read-out: Antagonist mode Emax %)?
A: Its Emax is 4%.
